## Apparent affinities of Ab-95 variants for a coronavirus HR2 peptide

Values reported by Engelhart et al. 2022, doi:10.1038/s41597-022-01779-4 (FLAb copy).

Target peptide (SARS-CoV-2 spike, HR2 region): PDVDLGDISGINAS

Each scFv is VH, a 15-residue (Gly4Ser)3 linker, VL, as in the parent Ab-95, and differs from it in the CDRs of the light chain only.
VH: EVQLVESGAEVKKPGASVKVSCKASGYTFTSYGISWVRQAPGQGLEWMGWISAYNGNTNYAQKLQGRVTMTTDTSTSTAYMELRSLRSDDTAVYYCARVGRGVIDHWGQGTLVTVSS
VL: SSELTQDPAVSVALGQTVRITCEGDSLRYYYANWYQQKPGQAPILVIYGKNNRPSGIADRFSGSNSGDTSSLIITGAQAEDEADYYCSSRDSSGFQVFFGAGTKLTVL

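Variants in AAYL52 differ from the parent at up to three CDR positions; double and triple changes were sampled at random. Affinity was read by AlphaSeq, a pooled yeast mating assay with surface-displayed partners. Mating (16 h, 30 °C) was followed by selection of diploids and sequencing of their barcodes. The ratio of observed to expected reads was calibrated, replicate by replicate, on BCL2-family standards whose Kd was known from biolayer interferometry. Each pool was mated in three replicate cultures.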

The parent's light chain CDRs are EGDSLRYYYAN, GKNNRPS, SSRDSSGFQVF; each variant's own CDRs replace them letter for letter. Numbers give log10(Kd / nM), so 0 is 1 nM and 3 is 1 µM. Smaller is tighter. An entry "nd" has no value in the source: the pair was not observed among the diploids in that replicate. This suggests poor binding but is not conclusive.

CDR-L1 | CDR-L2 | CDR-L3 | replicates, log10 nM | control signals
EGDSLREYYFN | GKNNRPS | SSRDSSGWQVF | 3.61 / 2.30 / 3.65 | 3 of 9 (4.28)
EVDSLRYLYAN | GKNNRPS | SSRDSSGFQVF | 4.60 / 4.99 / nd | 4 of 9 (4.13)
EHDRLRYYYAM | GKNNRPS | SSRDSSGFQVF | nd / nd / nd | 4 of 9 (3.63)
EGDSLRYYYAN | GKNNRPC | SSADSSAFQVF | nd / nd / 3.32 | 3 of 9 (3.64)
EGDSLRYYYAN | LKNNRSS | SSRDSSGFQVI | 3.87 / nd / nd | 4 of 9 (3.99)
EGDSLMYFYAN | GKGNRPS | SSRDSSGFQVF | 2.78 / 2.93 / 2.62 | 5 of 9 (3.74)
EGDPLRYYEAN | GKNMRPS | SSRDSSGFQVF | 1.50 / 1.61 / 1.13 | 5 of 9 (4.28)
EGDLLRYYYAN | GHNNRPS | SSRDSSGRQVF | 3.64 / 3.03 / 4.28 | 4 of 9 (3.89)
EGDSLRYYYAN | GKNNRPL | SSWDSSQFQVF | nd / 5.28 / nd | 3 of 9 (3.64)
EGDSLRYYCAN | GKNNRPI | SSRDSSGFQPF | nd / nd / 3.41 | 3 of 9 (3.65)
EGDSLRYYYAN | GKNNRPS | DSRDSSGNQVF | 2.63 / nd / nd | 3 of 9 (3.94)
EGVFLRYYFAN | GKNNRPS | SSRDSSGFQVF | 3.39 / 2.54 / 2.89 | 1 of 9 (5.42)
EGDSLRYYYAN | GKHNRPS | SSRDSCGFQVR | nd / 4.25 / nd | 4 of 9 (3.92)
EGDSHRYYYAN | GKNNRPS | SSRDSSGFQVF | 3.83 / 3.55 / 4.23 | 2 of 9 (3.76)
TPDSLRYYYAN | GKNNRPS | SSRDSSAFQVF | 3.71 / 5.91 / 4.01 | 5 of 9 (4.07)
EYDSLRYYYAR | GKNNRPS | SSRTSSGFQVF | 3.96 / 4.17 / 3.35 | 1 of 9 (4.38)
EGDSLRYYYAN | GKNNMPS | SSLMSSGFQVF | 4.10 / 3.60 / nd | 2 of 9 (3.11)
EGDSLRYYYAN | GKGNRMS | SSRDSSGFQVK | 3.12 / 2.99 / 2.72 | 3 of 9 (4.44)
EMDSLSYYYAN | GKNNRPS | SSRDSSGFQVF | 3.00 / 3.17 / 4.82 | 2 of 9 (4.21)
EGDSLRYYVAN | DKNNRES | SSRDSSGFQVF | nd / nd / nd | 0 of 9
WGDSLRYYYCN | GKNNRPS | SSRDSSGFNVF | 1.98 / 1.75 / 1.59 | 2 of 9 (4.47)
EGDSLRYYYMN | GKNPRPS | SSRDSSGFQVG | 3.20 / nd / nd | 3 of 9 (3.26)
EGDSARYYYAN | GKNNRPS | SSKDVSGFQVF | 3.41 / nd / 3.27 | 4 of 9 (3.96)
EGDSLRYYYAN | GPNNRPS | LSRDFSGFQVF | 3.13 / 2.92 / 2.67 | 1 of 9 (3.41)
EGDSLRYYSAN | GKNARPS | SSRKSSGFQVF | 3.26 / 4.32 / nd | 3 of 9 (3.82)
EGYSLRYYYAN | GKNNDPS | SSRDKSGFQVF | nd / 5.78 / nd | 5 of 9 (3.79)
EGDSVRYYAAN | GKNNRPS | SSRWSSGFQVF | 4.22 / nd / nd | 0 of 9
EGDSLRMYYAN | GKNNRPS | SSRDSSGQQPF | nd / 3.78 / nd | 0 of 9
EGDSLRYYYAN | WKNNRPS | SSKDSSGFQVF | nd / nd / nd | 3 of 9 (4.72)
EGDSLMYYYAN | GKNNRPD | SSRDQSGFQVF | 1.71 / 1.87 / 1.41 | 3 of 9 (4.47)
EGDSLRLYYAN | GKNNRPS | SSRDSSMFAVF | nd / nd / nd | 0 of 9
EGDSGRYYYAT | GKNNRPS | SSRTSSGFQVF | 3.29 / 3.97 / 3.25 | 1 of 9 (3.43)
EGDSLCYYYAN | GKNNRPS | RSRDSSGFQVK | 2.48 / 2.78 / 3.17 | 0 of 9
EGVSLRYYYAN | GKNFRPS | SSRYSSGFQVF | 2.81 / 2.87 / 2.32 | 3 of 9 (4.59)
EGDSIRYYYAN | GKINRSS | SSRDSSGFQVF | nd / nd / 4.50 | 2 of 9 (3.25)
EGDSLRYYYAM | GKNNGPS | SSRDTSGFQVF | nd / nd / nd | 0 of 9
EGDSLRYYYAN | GKNNRPS | FSRDAAGFQVF | 2.34 / 1.96 / 1.99 | 0 of 9
EGDSLRYYYAT | GKNNRPW | SSRDSSGFQAF | nd / 4.38 / nd | 1 of 9 (3.70)
DGKSLRYYYAN | GKNNRPS | SSRDSSGCQVF | 2.95 / 3.72 / 3.58 | 1 of 9 (3.61)
EGDSLRYYYEN | GKNNRPS | SSRISQGFQVF | nd / nd / nd | 3 of 9 (3.84)
EGDCLRPYYAS | GKNNRPS | SSRDSSGFQVF | 4.28 / 4.42 / nd | 1 of 9 (4.05)
EGGSLRYYYAN | GPNNRPS | SSRDSSLFQVF | 3.96 / 3.22 / 4.50 | 6 of 9 (3.90)
EGDSLRYYYAN | TKNNRCS | SSRDSSGFQRF | 3.81 / nd / 4.30 | 2 of 9 (3.51)
EGVSLNYYYAN | MKNNRPS | SSRDSSGFQVF | 2.88 / 3.58 / 3.51 | 3 of 9 (4.24)
EGDSLRYYYAN | GKNNRPS | KSRDSSGFTVV | nd / nd / nd | 3 of 9 (3.58)
EGDHLRYYYAN | GKNQRPS | SIRDSSGFQVF | 1.91 / 1.93 / 1.50 | 3 of 9 (4.41)
EGDSLRYYYAN | AKNNRPS | SSRDSSGFQVF | 3.12 / 2.56 / 3.30 | 4 of 9 (4.32)
EGDSLRNYYAN | GKNNRPS | SSIDSSTFQVF | 1.43 / 1.23 / 0.93 | 0 of 9
TGDSLRYYYAN | GKNNVPS | SARDSSGFQVF | 2.18 / 2.38 / 2.51 | 1 of 9 (4.78)
EGDSLRYYYAN | IKNNRPS | SGRDSSTFQVF | nd / nd / 3.71 | 0 of 9
EGDSLRYYYAN | GKNNRMS | LSRDSSGFQDF | 2.76 / nd / nd | 0 of 9

Top 8 of the variants detected in all replicates, tightest first:

CDR-L1 | CDR-L2 | CDR-L3 | replicates, log10 nM | control signals
EGDSLRNYYAN | GKNNRPS | SSIDSSTFQVF | 1.43 / 1.23 / 0.93 | 0 of 9
EGDPLRYYEAN | GKNMRPS | SSRDSSGFQVF | 1.50 / 1.61 / 1.13 | 5 of 9 (4.28)
EGDSLMYYYAN | GKNNRPD | SSRDQSGFQVF | 1.71 / 1.87 / 1.41 | 3 of 9 (4.47)
WGDSLRYYYCN | GKNNRPS | SSRDSSGFNVF | 1.98 / 1.75 / 1.59 | 2 of 9 (4.47)
EGDHLRYYYAN | GKNQRPS | SIRDSSGFQVF | 1.91 / 1.93 / 1.50 | 3 of 9 (4.41)
EGDSLRYYYAN | GKNNRPS | FSRDAAGFQVF | 2.34 / 1.96 / 1.99 | 0 of 9
TGDSLRYYYAN | GKNNVPS | SARDSSGFQVF | 2.18 / 2.38 / 2.51 | 1 of 9 (4.78)
EGVSLRYYYAN | GKNFRPS | SSRYSSGFQVF | 2.81 / 2.87 / 2.32 | 3 of 9 (4.59)

For reference, the parent read 2.31 as the reference entry and 2.25 as a member of this library. As a blank, each scFv also met three strains without target: over library AAYL52, 28% of these pairings were detected, typically at 3.91 and seldom below 2.90. Also given: how often the same scFv was detected with the empty control strains, with their mean in brackets.